# AlphaSeq binding of Ab-14 light chain variants to a spike HR2 peptide

Data: MIT Lincoln Laboratory AlphaSeq set, Li et al. 2023, doi:10.1038/s41467-023-39022-2, as distributed in FLAb.

Binding partner: SARS-CoV-2 spike HR2 peptide, sequence PDVDLGDISGINAS.

Parent scFv Ab-14: VH joined to VL by a (GGGGS)3 linker. Changes lie in the light chain CDRs alone.
VH: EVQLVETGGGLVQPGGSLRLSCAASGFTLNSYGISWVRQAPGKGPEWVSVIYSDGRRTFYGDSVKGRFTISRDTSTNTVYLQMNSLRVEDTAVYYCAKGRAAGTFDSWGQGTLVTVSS
VL: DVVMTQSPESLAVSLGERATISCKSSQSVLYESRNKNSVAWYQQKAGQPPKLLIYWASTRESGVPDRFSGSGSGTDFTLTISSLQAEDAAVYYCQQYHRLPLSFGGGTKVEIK

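The starting antibody came from a phage panning campaign against this peptide. The variants were designed computationally from a first round of random CDR variants and then made and measured. Several design methods are mixed in this list. The scFvs were displayed on barcoded MATa yeast, the peptide on MATalpha yeast. The frequency of each diploid, read from paired DNA barcodes, reflects how well the two displayed proteins bind. Scores were corrected for input abundance and mapped to Kd with protein pairs of known affinity run in the same pool. The assay was run in six technical replicates.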

Variants are written as CDR1, CDR2 and CDR3 of the light chain (limits as in the source). Parent: KSSQSVLYESRNKNSVA, WASTRES, QQYHRLPLS.
This list holds designs with more than six substitutions.
The Kd shown is the geometric mean over detected replicates; a lower Kd is a better binder.
An entry "nd" has no value in the source: the pair was not observed among the diploids in any replicate. This suggests poor binding but is not conclusive.

Variant KLRQLTHIESFNKNNVA, EMTTRES, QSYDRLPLS gave 5.4 nM (6 of 6 replicates).
Variant RLTEHQYMRADANHAVA, DASTRND, QQYHRLPLE gave 760 pM (6 of 6 replicates).
Variant MISQLFMYGSRNWNSVA, QASTRES, QQYDRLPLI gave 8.0 nM (4 of 6 replicates).
Variant KVDMYELPNEFNRSHVA, QAEVRAP, QQYWRLPLE gave 130 nM (1 of 6 replicates).
Variant MISNEQAYGYSATNSVA, DVTEKLN, QQYKRLPLT gave 3.5 nM (6 of 6 replicates).
Variant KMSQSQPYESRMSNAVA, NASLRMS, QQYHRLPLS gave 2.1 nM (6 of 6 replicates).
Variant MLSMVADYSQVSKNSVA, EMETREE, QQYDRLPLI gave 100 nM (3 of 6 replicates).
Variant QIYQAMHTLMQAKNNVA, DVTNRNR, QQYNRLPLS gave 11 nM (6 of 6 replicates).
Variant HLGLATMLEEHVRNSVA, NNSTREE, QQYDRLPLS gave 350 nM (2 of 6 replicates).
Variant KFSQSWGMESRNKNQVA, HASTRMS, QQYHRLPLS gave 5.3 nM (6 of 6 replicates).
Variant KVSQSNPYESRNAQSVA, NASQRCS, QQYHRLPLS gave 5.6 nM (6 of 6 replicates).
Variant MFSQSVMMGSFYRNSVA, QTSTRES, QQYDRLPLS gave 2.4 nM (6 of 6 replicates).
Variant MISQLYNMGTFAINSVA, QASLRCN, QQYDRLPLI gave nd (0 of 6 replicates).
Variant KISGMSNHQSSIHNNVA, ENVTRVQ, QQYFRLPLS gave 2.8 nM (6 of 6 replicates).
Variant MFDWGELPNGQKTSSIA, QGHMRAG, QQYYMLPLC gave 4.0 nM (6 of 6 replicates).
Variant KLTMISGLEKVSGNNVA, EMETRER, QQYNRLPLS gave 20 nM (6 of 6 replicates).
Variant KLSQSVNFFGHAINSVA, EMETREN, QQYDRLPLS gave 7.7 nM (6 of 6 replicates).
Variant TISQSVLMTGLNRNSVA, QAEQRIE, QQYHRLPLS gave 3.6 nM (6 of 6 replicates).
Variant MISQLTNMGTFAINSVA, QASVRNE, QQYDRLPLM gave 20 nM (6 of 6 replicates).
Variant KLQQSFLYEERNSNAVA, NASLREL, QQYHRLPLS gave 770 pM (6 of 6 replicates).
Variant HISPSFMVESRLKNSVA, QTETREK, QQYDRLPLS gave 5.9 nM (6 of 6 replicates).
Variant VIGEMYGNMVMKHSSIA, DNTTRQD, QQYDRLPLS gave 140 nM (5 of 6 replicates).
Variant KLQQQSEYGSRNKNSVA, QASTREQ, QQYHRLPLS gave 850 pM (6 of 6 replicates).
Variant KISMLINQTFEQSNNVA, EMATREK, QQYNRLPLS gave 10 nM (6 of 6 replicates).
Variant TISQSAQLESHNKNSVA, DLNVRGS, QQYDRLPLS gave 2.8 nM (6 of 6 replicates).
Variant KLRESQHVESKQKNNVA, DNSTRES, QDYHRLPLS gave 180 nM (6 of 6 replicates).
Variant KLRLHNLDFYEVENSIA, GESMRAH, QQYYRLPLN gave 36 nM (6 of 6 replicates).
Variant HLGLSTMLQETVRNSVA, NNSTRED, QQYDRLPLS gave 850 nM (5 of 6 replicates).
Variant KWEWSQLYESRNKNSVA, NASLRES, QQYRRLPLS gave 1.3 nM (6 of 6 replicates).
Variant TLLTGVTENAKNGKAIA, NNEEKAQ, QQYFRLPFS gave 780 pM (6 of 6 replicates).
Variant RIEDHIAEGEMRHNSIA, EEHMRMD, QMYSRLPLA gave 1.4 µM (4 of 6 replicates).
Variant MISQVMNTLTRNGNNVA, DLQERED, QQYFRLPLS gave 14 nM (6 of 6 replicates).
Variant IVSQLMMWGMHAKNSIA, EAVTRLN, QQYERLPLF gave 3.1 nM (1 of 6 replicates).
Variant MVKMELEEFAQDKHSVA, EAVERES, QQYHRLPII gave 120 nM (6 of 6 replicates).
Variant KFDDSMVEWDANQSQVA, DHAEAQH, QQYDRLPLS gave nd (0 of 6 replicates).
Variant TISTSMRYETSLKNAIA, NAQTRES, QQYHRLPLS gave 1.3 nM (6 of 6 replicates).
Variant MIHEMMGLVSHKQSSIA, DNSTREE, QQYDRLPLS gave 310 nM (1 of 6 replicates).
Variant HIHSQMFGTIAVKKNVA, NANTRLS, QQYSHLPLS gave 23 nM (6 of 6 replicates).
Variant MMSQVTGMELRQQNNVA, QTTTRES, QQYDRLPLI gave 51 nM (6 of 6 replicates).
Variant RLTNEFEKVSHHKNSIA, HTDQRCM, QQYFTLPLS gave 3.5 nM (6 of 6 replicates).
Variant TIGMFMDNLMQNRNNVA, DTSTLGD, QSYDRLPLS gave 2.0 nM (6 of 6 replicates).
Variant MMSQVTALGQRHRNNVA, QTSTRED, QQYDRLPLI gave 7.9 nM (6 of 6 replicates).
Variant RITILSDYYMENRSAIA, ETSLKAH, QQYFMLPLT gave 5.8 nM (1 of 6 replicates).
Variant KLSISHQVESINKSNVA, EMVTREK, QQYDRLPLS gave 92 nM (4 of 6 replicates).
Variant KLRMTTGYESRNKDSIA, DNSTRGR, QQYHRLPLS gave 420 nM (2 of 6 replicates).

Repeated from above, the 6 best binders with a signal in all replicates:

The variant RLTEHQYMRADANHAVA, DASTRND, QQYHRLPLE gave 760 pM (6 of 6 replicates).
The variant KLQQSFLYEERNSNAVA, NASLREL, QQYHRLPLS gave 770 pM (6 of 6 replicates).
The variant TLLTGVTENAKNGKAIA, NNEEKAQ, QQYFRLPFS gave 780 pM (6 of 6 replicates).
The variant KLQQQSEYGSRNKNSVA, QASTREQ, QQYHRLPLS gave 850 pM (6 of 6 replicates).
The variant KWEWSQLYESRNKNSVA, NASLRES, QQYRRLPLS gave 1.3 nM (6 of 6 replicates).
The variant TISTSMRYETSLKNAIA, NAQTRES, QQYHRLPLS gave 1.3 nM (6 of 6 replicates).

Of ten entries with the parent sequence, four were seen in most replicates (averages 2.2 nM to 240 nM), three in one and three in none, so single entries are noisy.
The range of this assay differs from that of the first round, and the authors advise against merging the two.
Nonspecific signal, from three strains lacking the peptide, appeared in 4% of pairings of all light chain designs, centred on 430 nM (5% of these signals below 38 nM); values are not corrected for it.
The authors' rule: three or more of the six replicates give a measured affinity, fewer mean a poor binder.